Where “and” joins values, the source holds several entries; their conditions need not be identical. Equal entries are not always repeated. Entries after “also recorded” stand apart in the source; their conditions may differ. Where two headings read alike, the source gives them in different places.
Experiments:
Kv2 voltage sensors [1] = conditions: Table 1 input parameter; ref Tilley et al., 2019; cited from earlier work
BK-GFP = test: GxTX-594 labeling and colocalization imaging, BK-GFP; type: binding, mouse; conditions: 100 nM
[2] = tested on: Kv2.1-GFP in CA1 hippocampal pyramidal neurons; test: Two-photon imaging of GxTX-594 in hippocampal slices transfected with Kv2.1-GFP; type: binding, rat; conditions: 100 nM
How it was run: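 Rat organotypic hippocampal slices were labeled with 100 nM test compound. CA1 pyramidal neurons were imaged by two-photon excitation 2, 4 or 6 d after Kv2.1-GFP transfection. Slices were held under a gold-wire weight in a chamber with recirculating ACSF at 30°C.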

Kv2.2-GFP = test: GxTX-594 labeling and colocalization imaging, Kv2.2-GFP; type: binding, rat; conditions: CHO cells, 100 nM, 5 min, Pearson correlation
Kv2.1 (Kv2.1-CHO cells) [3] = biological target: T1, Kv2.1 (Kv2.1-CHO cells) (Rattus norvegicus, UniProt P15387); test: Voltage clamp fluorometry with repetitive 2-ms voltage steps, Kv2.1-CHO cells; type: cell-based
T1 sequence (P15387 1-857): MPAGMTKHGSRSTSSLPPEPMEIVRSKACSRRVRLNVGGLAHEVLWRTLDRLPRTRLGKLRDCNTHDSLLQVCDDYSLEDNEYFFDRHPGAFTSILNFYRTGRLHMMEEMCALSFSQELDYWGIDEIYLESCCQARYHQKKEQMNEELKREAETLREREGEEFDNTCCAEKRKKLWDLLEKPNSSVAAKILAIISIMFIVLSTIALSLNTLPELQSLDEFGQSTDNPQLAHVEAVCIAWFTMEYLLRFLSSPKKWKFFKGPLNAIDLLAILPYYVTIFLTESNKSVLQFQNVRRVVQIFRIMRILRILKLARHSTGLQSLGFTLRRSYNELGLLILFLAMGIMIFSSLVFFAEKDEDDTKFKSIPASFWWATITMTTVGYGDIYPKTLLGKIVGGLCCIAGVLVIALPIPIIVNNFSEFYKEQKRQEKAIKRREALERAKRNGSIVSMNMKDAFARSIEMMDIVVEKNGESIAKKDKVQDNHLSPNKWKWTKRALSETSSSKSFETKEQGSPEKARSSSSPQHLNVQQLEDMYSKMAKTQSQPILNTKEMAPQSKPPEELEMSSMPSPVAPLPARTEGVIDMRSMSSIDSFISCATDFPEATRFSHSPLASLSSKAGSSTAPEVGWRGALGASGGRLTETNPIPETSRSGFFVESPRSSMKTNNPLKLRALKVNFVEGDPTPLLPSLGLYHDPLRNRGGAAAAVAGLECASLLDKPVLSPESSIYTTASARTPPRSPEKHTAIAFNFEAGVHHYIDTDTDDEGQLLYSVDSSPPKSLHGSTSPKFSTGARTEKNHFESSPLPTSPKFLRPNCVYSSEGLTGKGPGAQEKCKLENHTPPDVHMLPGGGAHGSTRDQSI

Kv2 voltage sensors [4] = test: EVAP model calculations; conditions: Table 1
Kv2.1 = biological target: T2, Kv2.1 (Rattus norvegicus, UniProt P15387); test: GxTX-594 fluorescence equilibration after dilution from 100 nM to 9 nM; type: binding; conditions: 9 min after dilution from 100 nM to 9 nM, on average
T2 sequence (P15387 1-857): T1 sequence (P15387 1-857)

[5] = tested on: endogenous Kv2 proteins of CA1 pyramidal neurons; set-up: species or system rat; conditions: for kΔF of individual puncta, 0-mV step / kΔF of ROI 1, 0-mV step: 30°C
[6] = tested on: CHO cells in the absence of Kv2 proteins; test: GxTX-594 labeling of CHO cells lacking Kv2 proteins; type: binding, Chinese hamster; conditions: 100 nM then diluted to 9 nM
How it was run: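 Nontransfected CHO cells and Kv2.1-GFP or Kv2.2-GFP transfected cells were incubated with 100 nM test compound plus 5 μg/ml WGA-405. Both were then diluted to 9 nM and 0.45 μg/ml before Airy disk imaging above the glass-adhered surface. WGA-405 fluorescence served as a mask for manually drawn ROIs. Per-cell 594-nm versus 488-nm intensities were compared between cells with and without obvious GFP.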

Kv2.1-GFP = test: GxTX-594 labeling and colocalization imaging, Kv2.1-GFP; type: binding, rat
Kv2.1 (Kv2.1-CHO cells) [7] = biological target: T1, Kv2.1 (Kv2.1-CHO cells); test: Voltage clamp fluorometry of GxTX-594 on Kv2.1-CHO cells; type: cell-based

For CCCC[C@H](NC(=O)[C@@H]1CCCN1C(=O)[C@H](Cc1ccccc1)NC(=O)[C@H](CC(N)=O)NC(=O)[C@@H]1CSSC[C@@H]2NC(=O)[C@H](C)NC(=O)[C@@H]3CCCN3C(=O)[C@H](CCCCN)NC(=O)CNC(=O)[C@H](CSC3CC(=O)N(CCCCCNC(=O)c4ccc(C5=c6cc7c(cc6Oc6cc8c(cc65)C(CS(=O)(=O)O)=CC(C)(C)N8C)=[N+](C)C(C)(C)C=C7CS(=O)(=O)[O-])c(C(=O)O)c4)C3=O)NC(=O)CNC(=O)[C@@H]3CSSC[C@H](NC(=O)[C@H](C(C)C)NC(=O)[C@H](Cc4ccc(O)cc4)NC(=O)[C@H](CCCCN)NC(=O)[C@@H]4CCCN4C(=O)[C@H](CSSC[C@H](NC(=O)[C@H](CCC(=O)O)NC(=O)CNC(=O)[C@@H](N)CCC(=O)O)C(=O)NCC(=O)NCC(=O)N[C@@H](Cc4ccccc4)C(=O)N[C@@H](Cc4c[nH]c5ccccc45)C(=O)N[C@@H](Cc4c[nH]c5ccccc45)C(=O)N[C@@H](CCCCN)C(=O)N3)NC2=O)C(=O)N[C@@H](CO)C(=O)N2CCC[C@H]2C(=O)N[C@@H](CCCCN)C(=O)N[C@@H](Cc2c[nH]c3ccccc23)C(=O)NCC(=O)N[C@@H](CC(C)C)C(=O)N1)C(=O)N1CCC[C@H]1C(=O)O (stereo partly shown) [GxTX-594, Ser13Cys (Alexa Fluor 594) GxTX-1E], the “V1/2,labeled” value (Kv2 voltage sensors [1]) is listed as 41 mV, the “ratio of GxTX-594 fluorescence to GFP” value (BK-GFP; rinsed, n = 10 cells) is listed as “not distinguishable from zero” and the “colocalization with GFP-tagged channel” value (BK-GFP; Pearson correlation) is listed as “no colocalization was apparent”. The “labeling (Fig. S2)” value (BK-GFP; confocal) was “no indication of GxTX-594 labeling”, the “colocalization with Kv2.1-GFP in neurons after washout” value ([2]; 5 min, two-photon) was “GxTX-594 fluorescence remained colocalized with Kv2.1-GFP” and the “intensity of labeling of neighboring neurons not expressing Kv2.1-GFP” value ([2]; 5 min, two-photon) was “roughly an order of magnitude dimmer”. The “non-Kv2 labeling in slices” value ([2]; most prevalent at slice surface) was “occasionally labels structures not consistent with Kv2 proteins”, the “subcellular colocalization with Kv2.2-GFP” value (Kv2.2-GFP) was “high degree of subcellular colocalization” and the “kΔF at 200 Hz” value (Kv2.1 (Kv2.1-CHO cells) [3]; 9 nM GxTX-594, 2-ms steps −80 to +40 mV, representative trace) was 0.2327 ± 0.0099 × 10^−1 s^−1. For the same molecule, the “unlabeling and kΔF vs stimulus frequency” value (Kv2.1 (Kv2.1-CHO cells) [3]; 9 nM, 0.02–200 Hz) was “increased with stimulus frequency”, the “fluorescence decrease compared with EVAP model at and >50 Hz” value (Kv2.1 (Kv2.1-CHO cells) [3]; 9 nM, 2-ms steps −80 to +40 mV) was “fluorescence decreased by more than the EVAP model predicted” and the “koff,resting” value (Kv2 voltage sensors [4]; from saturating kΔF at negative voltages and Kd) was 0.0081 s⁻¹. For the same molecule, the “koff,activated” value (Kv2 voltage sensors [4]; saturating amplitude of Boltzmann fit to kΔF at positive voltages) was 0.39 s⁻¹, the “equilibration completed after dilution” value (Kv2.1) was 85% and the “kΔF of individual puncta, 0-mV step” value ([5]; 100 nM, puncta 4 (red)) was 0.067 ± 0.025 s⁻¹. For the same molecule, the “kΔF of individual puncta, 0-mV step” value ([5]; 100 nM, puncta 5 (dark red)) was 0.12 ± 0.056 s⁻¹, the “kΔF of ROI 1, 0-mV step” value ([5]; 100 nM, slice 1 (yellow)) was 0.068 ± 0.026 s⁻¹ and the “kΔF of ROI 1, 0-mV step” value ([5]; 100 nM, slice 2 (red)) was 0.068 ± 0.046 s⁻¹. For the same molecule, the “fluorescence change in ROI 1 compared with ROI 2 and ROI 3, step to 0 mV” value ([5]; 100 nM, three slices, ANOVA P < 0.001, Tukey's P < 0.001) was “significant decrease in fluorescence in ROI 1”, the “response of puncta to depolarization to 0 mV” value ([5]; 100 nM, −70 to 0 mV) was “loss of fluorescence from a subset of puncta” and the “voltage sensitivity of Kv2 protein at discrete individual clusters” value ([5]; CA1 neurons) was “majority of Kv2 protein detected at discrete individual clusters was voltage sensitive”. For the same molecule, the “labeling of CHO cells in the absence of Kv2 proteins” value [6] was “failed to find any GxTX-594 labeling”, the “Pearson correlation coefficients for Kv2.1 or Kv2.2 vs Kv1.5, Kv4.2, or BK” value (Kv2.1-GFP; 100 nM (Fig. 4 C), Mann–Whitney P < 0.0001) was “Significant differences were observed” and the “594:488 ratio for Kv2.1 or Kv2.2 vs Kv1.5, Kv4.2, or BK” value (Kv2.1-GFP; 100 nM, with β subunits (Fig. 4 B), Mann–Whitney P < 0.0001) was “Significant differences were observed”. The “GxTX:GFP ratio for Kv2.1 or Kv2.2 vs Kv1.5, Kv4.2, or BK” value (Kv2.1-GFP; 100 nM, without β subunits (Fig. S2 C), Mann–Whitney P < 0.0001) was “Significant differences were observed”, the “ratio of GxTX-594 to GFP fluorescence, Kv2.1-GFP vs Kv2.2-GFP” value (Kv2.1-GFP; 100 nM, Mann–Whitney U test P = 0.74) was “did not detect a significant difference; also recorded: No significant difference was detected” and the “subcellular colocalization with Kv2.1-GFP” value (Kv2.1-GFP; CHO cells, 100 nM, 5 min, Pearson correlation) was “high degree of subcellular colocalization”. The “residual fluorescence at +80 mV” value (Kv2.1 (Kv2.1-CHO cells) [7]; 9 nM GxTX-594) was “some GxTX-594 fluorescence remained”, the “range in kΔF values at +80 mV” value (Kv2.1 (Kv2.1-CHO cells) [7]; 9 nM GxTX-594, cell-to-cell) was “ninefold range” and the “range in kΔF values at −80 mV” value (Kv2.1 (Kv2.1-CHO cells) [7]; 9 nM GxTX-594, cell-to-cell) was “twofold range”. For the same molecule, the “z of fluorescence–voltage (FV) relation” value (Kv2.1 (Kv2.1-CHO cells) [7]; 9 nM GxTX-594, end of 50-s steps, first-order Boltzmann fit) was 1.38 ± 0.13 e0 and 1.4 e0 and 1.4 ± 0.1 e0.

From PMC8480965 (The Journal of General Physiology, 2021)
